Measured values from BindingDB's records for doi:10.1023/a:1006986824213 (1999).
Counter-ions that a name gives are not always drawn.

The chains behind the UniProt entries cited, without tags or fusion partners.
UniProt P14842, whole entry: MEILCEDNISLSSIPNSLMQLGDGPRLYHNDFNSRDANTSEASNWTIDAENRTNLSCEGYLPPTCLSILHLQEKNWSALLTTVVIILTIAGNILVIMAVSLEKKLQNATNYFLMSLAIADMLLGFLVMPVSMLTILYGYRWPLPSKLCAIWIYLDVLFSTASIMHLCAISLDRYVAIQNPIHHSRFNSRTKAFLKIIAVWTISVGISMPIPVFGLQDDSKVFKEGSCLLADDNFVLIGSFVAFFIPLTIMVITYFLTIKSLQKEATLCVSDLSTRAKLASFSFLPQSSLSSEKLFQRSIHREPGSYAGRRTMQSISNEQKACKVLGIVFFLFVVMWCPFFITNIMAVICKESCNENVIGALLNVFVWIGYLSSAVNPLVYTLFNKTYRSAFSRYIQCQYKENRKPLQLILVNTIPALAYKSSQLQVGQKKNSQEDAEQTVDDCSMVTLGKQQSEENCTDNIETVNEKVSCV
UniProt P23977, whole entry: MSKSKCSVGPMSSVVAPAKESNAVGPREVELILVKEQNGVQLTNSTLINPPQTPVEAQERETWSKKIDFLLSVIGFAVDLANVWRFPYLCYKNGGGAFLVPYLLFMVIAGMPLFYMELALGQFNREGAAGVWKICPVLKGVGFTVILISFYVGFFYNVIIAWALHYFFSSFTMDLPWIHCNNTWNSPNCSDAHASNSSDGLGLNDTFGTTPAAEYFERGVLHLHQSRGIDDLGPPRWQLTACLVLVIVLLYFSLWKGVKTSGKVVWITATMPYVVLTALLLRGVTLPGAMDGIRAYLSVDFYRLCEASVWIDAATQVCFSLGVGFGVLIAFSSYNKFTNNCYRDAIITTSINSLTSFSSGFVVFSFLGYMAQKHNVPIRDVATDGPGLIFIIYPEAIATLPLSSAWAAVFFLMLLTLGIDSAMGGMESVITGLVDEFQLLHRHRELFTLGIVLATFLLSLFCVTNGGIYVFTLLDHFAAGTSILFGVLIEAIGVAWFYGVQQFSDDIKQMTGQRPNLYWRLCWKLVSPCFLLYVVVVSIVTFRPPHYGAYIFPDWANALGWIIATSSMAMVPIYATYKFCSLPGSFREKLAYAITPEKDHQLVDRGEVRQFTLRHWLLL
UniProt P31652, whole entry: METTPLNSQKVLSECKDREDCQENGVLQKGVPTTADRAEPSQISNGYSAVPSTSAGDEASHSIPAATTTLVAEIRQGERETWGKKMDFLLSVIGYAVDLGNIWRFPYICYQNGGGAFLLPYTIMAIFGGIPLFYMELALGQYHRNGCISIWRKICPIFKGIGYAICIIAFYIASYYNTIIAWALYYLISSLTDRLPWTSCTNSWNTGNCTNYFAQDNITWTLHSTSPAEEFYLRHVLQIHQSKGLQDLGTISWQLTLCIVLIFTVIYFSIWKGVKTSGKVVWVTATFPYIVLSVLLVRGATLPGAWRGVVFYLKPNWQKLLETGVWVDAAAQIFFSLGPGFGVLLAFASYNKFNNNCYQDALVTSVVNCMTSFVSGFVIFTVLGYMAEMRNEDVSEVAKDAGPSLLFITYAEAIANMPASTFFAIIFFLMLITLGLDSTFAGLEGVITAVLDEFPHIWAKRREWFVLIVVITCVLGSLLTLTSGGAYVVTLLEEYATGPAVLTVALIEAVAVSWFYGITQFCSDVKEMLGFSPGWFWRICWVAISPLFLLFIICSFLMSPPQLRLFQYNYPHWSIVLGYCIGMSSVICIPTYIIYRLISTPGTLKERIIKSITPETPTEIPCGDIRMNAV

Experiments:
[1] = target: 5-hydroxytryptamine receptor 2A (Rattus norvegicus, UniProt P14842)
[2] = target: Sodium-dependent dopamine transporter (Rattus norvegicus, UniProt P23977)
[3] = target: Sodium-dependent serotonin transporter (Rattus norvegicus, UniProt P31652)

| Compound | Ki [1] [µM] | Ki [2] [µM] | Ki [3] [µM] |
| --- | --- | --- | --- |
| CN(C)CCCC1(c2ccc(F)cc2)OCc2cc(C#N)ccc21 (centres undefined) [CITALOPRAM HYDROBROMIDE] | 5.6 | > 10 |  |
| Fc1ccc([C@@H]2CCNC[C@H]2COc2ccc3c(c2)OCO3)cc1 [PAROXETINE] |  | 5.1 | 0.00029 |
